For one compound, Emax results are on record in patent publication US9056835B2, “LPA2 receptor-specific benzoic acid derivatives” (University of Tennessee Research Foundation, priority 2012, dated 2015).

Protein sequences, listed by entry. Tags and fused reporters are not part of them.
UniProt Q9HBW0, whole entry: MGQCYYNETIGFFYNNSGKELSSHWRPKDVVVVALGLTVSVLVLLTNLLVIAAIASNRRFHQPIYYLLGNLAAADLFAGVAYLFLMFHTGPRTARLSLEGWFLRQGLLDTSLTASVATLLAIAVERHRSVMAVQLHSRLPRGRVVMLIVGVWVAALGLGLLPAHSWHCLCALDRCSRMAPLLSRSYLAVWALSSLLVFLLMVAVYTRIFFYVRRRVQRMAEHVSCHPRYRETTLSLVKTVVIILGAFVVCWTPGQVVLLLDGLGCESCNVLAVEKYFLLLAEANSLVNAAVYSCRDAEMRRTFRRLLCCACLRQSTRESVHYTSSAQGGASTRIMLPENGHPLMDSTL

This assay has as its target LPA2 (Homo sapiens, UniProt Q9HBW0). As to the kind of experiment: LPA receptor-mediated Ca2+ mobilization assay, LPA2 (RH7777 cells stably expressing LPA2). The format is cell-based. On the set-up: expressed in transfected cells. The conditions noted are these: Ca2+ transients. The protocol:
Similarity searches were performed separately using each fingerprint to quantitate similarity. Hits meeting the 80% similarity threshold from each search were ranked based on the Tanimoto coefficient measure of similarity to a target molecule NSC12404, and the top 75 unique hits from each fingerprint search were selected for further analysis. […] This selected a diverse subset of 27 compounds for biological evaluation by choosing the middle compounds in each cluster. These 27 compounds were tested in Ca^2+ mobilization assays at a concentration of 10 μM using stable cell lines individually expressing LPA2 and also in vector-transfected control cells. Hits activating LPA2 were further tested using cells expressing the other established and putative LPA GPCRs. […]
The cells were loaded with Fura-2-acetoxymethyl esther (Fura-2/AM) in Krebs buffer containing 0.01% pluronic acid for 30 min and rinsed with Krebs buffer before measuring Ca^2+ mobilization. The ratio of peak emissions at 510 nm after 2 min of ligand addition was determined for excitation wavelengths of 340 nm/380 nm. […] The half maximally effective concentration (EC50), and inhibitory constant (Ki) values were calculated by fitting a sigmoid function to dose-response data points using KaleidaGraph software (version 4.1, Synergy Software; […]). […]

For `O=C(O)c1ccccc1S(=O)(=O)NCCCN1C(=O)c2cccc3cccc(c23)C1=O` [Compound 5a, 2-[3-(1,3-Dioxo-1H,3H-benzo[de]isoquinolin-2-yl)propylsulfamoyl]benzoic acid], the maximum response (Emax) was 100%.
